Source: US5620955A, “Bombesin receptor antagonists and uses thereof” (Peptide Technologies Corporation, priority 1993, dated 1997)

By UniProt entry, the sequences of proteins in these tests, tags left out.
UniProt P30551, whole entry: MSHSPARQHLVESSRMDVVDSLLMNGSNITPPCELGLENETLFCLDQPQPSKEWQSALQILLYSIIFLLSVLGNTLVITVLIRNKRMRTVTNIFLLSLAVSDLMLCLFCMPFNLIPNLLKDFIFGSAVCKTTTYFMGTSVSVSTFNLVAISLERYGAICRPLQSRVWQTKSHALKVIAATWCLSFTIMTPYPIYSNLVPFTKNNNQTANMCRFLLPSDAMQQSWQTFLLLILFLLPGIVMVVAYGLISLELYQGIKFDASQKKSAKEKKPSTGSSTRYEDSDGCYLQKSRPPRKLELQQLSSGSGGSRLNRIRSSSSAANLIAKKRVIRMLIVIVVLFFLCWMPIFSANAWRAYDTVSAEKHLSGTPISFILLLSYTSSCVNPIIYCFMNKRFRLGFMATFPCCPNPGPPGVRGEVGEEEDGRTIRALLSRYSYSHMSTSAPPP

Target: CCK Receptor (Rattus norvegicus, UniProt P30551)
Test: Specificity test, CCK-stimulated amylase secretion of rat pancreatic acinar cells after wash
Details: no antagonist; CCK 0.1 nM

cholecystokinin [CCK]
Amylase Release, Post-Wash 1 Min: 12.6 ± 1.7 % Total
Amylase Release, Post-Wash 30 Min: 8.2 ± 1.0 % Total
Amylase Release, Post-Wash 60 Min: 9.3 ± 2.0 % Total
Amylase Release, Secretion (Wash): 16.4 ± 1.9 % Total
